Experiment [1] has as its target T1, Angiopoietin-1 receptor (Homo sapiens, UniProt Q02763). Briefly: Inhibition of human Tie2 expressed in porcine PAE145 cells cotransfected with chimeric rat TRK-A/KDR receptor after 1 hr by immunofluorescence assay. It is filed as cell-based.
The target in experiment [2] is T1, Angiopoietin-1 receptor.

Chains of the proteins cited; added tags and fusions are not shown. Lines headed by an entry give the natural chain unless they say otherwise; changes in a name come on top.
UniProt Q02763: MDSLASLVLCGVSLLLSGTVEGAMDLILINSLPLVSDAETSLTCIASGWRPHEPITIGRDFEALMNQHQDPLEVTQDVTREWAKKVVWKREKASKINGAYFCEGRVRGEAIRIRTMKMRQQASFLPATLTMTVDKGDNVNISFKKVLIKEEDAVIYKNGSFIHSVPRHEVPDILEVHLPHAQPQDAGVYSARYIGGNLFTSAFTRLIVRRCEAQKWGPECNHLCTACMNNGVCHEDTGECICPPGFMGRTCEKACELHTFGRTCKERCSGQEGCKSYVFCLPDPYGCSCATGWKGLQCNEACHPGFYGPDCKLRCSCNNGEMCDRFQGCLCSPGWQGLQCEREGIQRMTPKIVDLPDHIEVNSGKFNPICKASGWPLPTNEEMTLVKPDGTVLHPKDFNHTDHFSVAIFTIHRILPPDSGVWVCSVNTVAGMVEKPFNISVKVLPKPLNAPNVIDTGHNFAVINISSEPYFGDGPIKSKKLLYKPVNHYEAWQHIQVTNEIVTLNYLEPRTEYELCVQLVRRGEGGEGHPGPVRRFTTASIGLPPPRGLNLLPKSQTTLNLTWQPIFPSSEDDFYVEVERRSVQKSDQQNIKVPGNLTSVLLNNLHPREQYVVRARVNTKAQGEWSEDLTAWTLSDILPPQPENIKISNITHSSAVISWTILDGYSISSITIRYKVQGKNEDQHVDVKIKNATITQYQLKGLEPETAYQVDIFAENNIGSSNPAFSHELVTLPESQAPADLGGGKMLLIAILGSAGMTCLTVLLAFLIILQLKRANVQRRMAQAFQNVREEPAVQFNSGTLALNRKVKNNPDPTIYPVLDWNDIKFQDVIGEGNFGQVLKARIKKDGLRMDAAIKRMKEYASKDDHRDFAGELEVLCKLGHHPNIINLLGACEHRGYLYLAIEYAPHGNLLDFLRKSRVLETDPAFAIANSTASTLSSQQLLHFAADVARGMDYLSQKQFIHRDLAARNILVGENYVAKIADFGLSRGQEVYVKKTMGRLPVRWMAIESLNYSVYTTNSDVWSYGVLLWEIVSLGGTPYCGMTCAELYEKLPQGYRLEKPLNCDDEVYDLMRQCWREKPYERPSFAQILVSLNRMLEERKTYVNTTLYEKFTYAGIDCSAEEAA

Take `CC(C)Cn1c2ccc(Nc3ncccn3)cc2c2c3c(c4c(c21)CCc1nn(C)cc1-4)C(=O)NC3` [CEP-11981]: the figures for the IC50 in experiment [1] and in experiment [2] were 50 nM and 22 nM, respectively.
